“Also recorded” adds a separate entry of the source.
Assay: Single-dose oral pharmacokinetic study of one Phycox soft chew in dogs (serum, LC-MS/MS, non-compartmental analysis)
Assay type: in vivo, dog (female Beagle)
Settings: single PO Phycox soft chew (36.1 μg ±hesperetin, 0.554 μg trans-resveratrol, 2.88 μg ±naringenin), serum 0-24 h, LOQ 5 ng/mL
Excerpt: The animal research protocol used in this study was reviewed and approved by the Institutional Animal Care and Use Committee at Washington State University (protocol #04224-011, approved 21 December 2014). Four commercially available purpose-bred intact female research Beagles from an Association for Assessment and Accreditation of Laboratory Animal Care (AALAC) certified source were used for the study. All dogs were 2 years of age at the onset of the study with a weight of 9.25 ± 0.81 kg (mean ± SD; range 8.4–10.2 kg). Animals were housed in AALAC approved facilities for animal research for 80 days acclimating to their environment prior to the initiation of the study. […] Following centrifugation of the blood samples, serum was removed and stored at −80 °C until analyzed. […] PK samples were analyzed using Phoenix WinNonlin software (ver. 6.3; Certara, St. Louis, MO, USA) to derive the pharmacokinetic parameters for each individual dog and expressed as mean ± SEM. […] The AUC0–∞ was calculated using the long-linear trapezoidal rule for data from time of dosing to the last measured concentration plus the quotient of the last measured concentration divided by KE/2.303. […]

±naringenin
serum concentration of polyphenol (aglycone or glucuronidated metabolite): not detected at quantifiable concentrations; also recorded: no compounds were detected at quantifiable concentrations

From PMC5620571, “Pharmacokinetic Analysis of an Oral Multicomponent Joint Dietary Supplement (Phycox®) in Dogs” (Pharmaceutics, 2017)
